The list shows a part of the results, in another mix than the full data. Calls of active or inactive are those of the source.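 How the source made its calls: active means side scatter shift above 30%; inactive means the rest.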
Experiment: inducers of granularity increase in LNCaP cells – cell-based, flow cytometry side scatter, primary screen (AID 795);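 further: androgen-responsive LNCaP prostate cancer cells in charcoal-stripped serum medium; percent of cells past a gate set so DMSO wells show 10% shift; higher shift means more granular cells and more differentiation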
Details: LNCaP differentiation, 4 d, at 10 µM, hits give high values

| Compound | side scatter shift |
| --- | --- |
| N#CC1(Nc2ccccc2)CCN(CCc2ccccc2)CC1 | inactive: 5% |
| Fc1ccccc1NC1CCN(Cc2ccccc2)CC1 | inactive: 6% |

Source: PubChem BioAssay AID795 (NMMLSC, 2007)
